Experimental data as given in patent publication EP4847492A1, “USE OF SALT FORMS OF COMPOUND AND CRYSTAL FORMS THEREOF IN TREATMENT OF HEART FAILURE WITH PRESERVED EJECTION FRACTION” (dated 2026).

What was measured:
[1] = Preliminary physical stability, open storage at 25°C/60% RH and 25°C/80% RH
[2] = Water activity competition experiment, ethanol/water, 5°C and 25°C; details: ethanol/water, 5 days
[3] = Solubility at 37°C in water, buffer and simulated biological fluids (2 h, 24 h)
[4] = Solid stability, 25°C/92.5%RH open and 60°C closed, 1 week (XRPD, HPLC, color); set-up: CL (color) / Color: key to the marks not given beside the values; details: Solid; for Solid (XRPD): crystal form after storage
[5] = Thermal analysis (DSC/TGA), thermal stability
[6] = Pharmacokinetic study, plasma concentration by LC-MS/MS; details: Balb/c mice, male, fasted
[7] = tested on: HFpEF animal model; test: HFpEF mouse model (HFD + L-NAME), echocardiography and Doppler imaging; details: Example 6; 12 mg/kg per administration, every other day, 0.5% PVP; 3 weeks after administration; Figure 73
[8] = 25°C/60%RH, open storage for 3 days
[9] = 25°C/80%RH, open storage for 2 days
[10] = 25°C/92.5%RH, open storage conditions
[11] = Intravenous injection 2 mg/kg, individual animals, listed as T-5224 free acid Form A, 2 mg/kg
[12] = Intravenous injection 2 mg/kg, mean of 3
[13] = Oral administration 12 mg/kg, individual animals, listed as T-5224 free acid Form A, 12 mg/kg
[14] = Oral administration 12 mg/kg, mean of 3, listed as T-5224 free acid Form A, 12 mg/kg
[15] = FaSSGF, pH 1.6, 37°C, LOQ: 0.5 µg/mL
[16] = FaSSGF, pH 1.6, 37°C, LOQ: 0.5µg/mL
[17] = Water, 37°C, target concentration 2mg/mL (as T-5224)

O=C(O)CCc1cc(C(=O)c2ccc(OC3CCCC3)cc2O)ccc1OCc1ccc2c(O)noc2c1 [Choline salt Form A]
moisture absorption and color change of the solid [1, 8]: No significant moisture absorption of the solid; no significant color change. | moisture absorption and color change of the solid [1, 9]: No significant moisture absorption of the solid; no significant color change. | water activity (a.w.) at which choline salt Form A transforms to choline salt Form B / Form B is thermodynamically more stable ([2]; 5°C): ≤ 0.6 | water activity (a.w.) at which choline salt Form A transforms to choline salt Form B / Form B is thermodynamically more stable ([2]; 25°C): ≤ 0.3 | pH of the supernatant 24h ([3]; FaSSGF, pH 1.6, 37°C): 1.5 | pH of the supernatant 24h ([3]; FaSSIF-v1, pH 6.5, 37°C): 6.6 | pH of the supernatant 24h ([3]; FeSSIF-v1, pH 5.0, 37°C): 5.1 | pH of the supernatant 24h ([3]; Water, 37°C): 8.2 | CL (color) [4, 10]: A | Solid (HPLC) Purity [4, 10]: 99.5% | Solid (XRPD) [4, 10]: Choline salt Form A | CL (color) ([4]; 60°C, closed container): A | Solid (HPLC) Purity ([4]; 60°C, closed container): 99.5% | Solid (XRPD) ([4]; 60°C, closed container): Choline salt Form A | Thermal weight loss (TGA) ([5]; @ 80°C): 2.6% | Thermal weight loss (TGA) ([5]; @ 80°C to 130°C): 0.1%

O=C(O)CCc1cc(C(=O)c2ccc(OC3CCCC3)cc2O)ccc1OCc1ccc2c(O)noc2c1 [Diethylamine salt Form A]
moisture absorption and color change of the solid [1, 8]: No significant moisture absorption of the solid; no significant color change. | moisture absorption and color change of the solid [1, 9]: No significant moisture absorption of the solid; no significant color change.

O=C(O)CCc1cc(C(=O)c2ccc(OC3CCCC3)cc2O)ccc1OCc1ccc2c(O)noc2c1 [Diethylamine salt Form C]
pH of the supernatant 24h ([3]; FaSSGF, pH 1.6, 37°C): 1.5 | pH of the supernatant 24h ([3]; Water, 37°C): 8.1 | CL (color) [4, 10]: A | Solid (HPLC) Purity [4, 10]: 98.4% | Solid (XRPD) [4, 10]: Diethylamine salt Form C | CL (color) ([4]; 60°C, closed container): A | Solid (HPLC) Purity ([4]; 60°C, closed container): 98.4% | Solid (XRPD) ([4]; 60°C, closed container): Diethylamine salt Form C

O=C(O)CCc1cc(C(=O)c2ccc(OC3CCCC3)cc2O)ccc1OCc1ccc2c(O)noc2c1 [Dimethylethanolamine salt Form A]
moisture absorption and color change of the solid [1, 8]: No significant moisture absorption of the solid; no significant color change. | moisture absorption and color change of the solid [1, 9]: No significant moisture absorption of the solid; no significant color change.

O=C(O)CCc1cc(C(=O)c2ccc(OC3CCCC3)cc2O)ccc1OCc1ccc2c(O)noc2c1 [Potassium salt Form B]
moisture absorption and color change of the solid [1, 8]: No significant moisture absorption of the solid; no significant color change. | moisture absorption and color change of the solid [1, 9]: No significant moisture absorption of the solid; no significant color change.

O=C(O)CCc1cc(C(=O)c2ccc(OC3CCCC3)cc2O)ccc1OCc1ccc2c(O)noc2c1 [Sodium salt Form B]
moisture absorption and color change of the solid [1, 8]: No significant moisture absorption of the solid; no significant color change. | moisture absorption and color change of the solid [1, 9]: No significant moisture absorption of the solid; no significant color change.

O=C(O)CCc1cc(C(=O)c2ccc(OC3CCCC3)cc2O)ccc1OCc1ccc2c(O)noc2c1 [T-5224 Form A]
AUC0-t [6, 11]: 670 ng·h/mL and 889 ng·h/mL and 855 ng·h/mL | AUC0-∞ [6, 11]: 716 ng·h/mL and 913 ng·h/mL and 902 ng·h/mL | C0 [6, 11]: 5514 ng/mL and 6797 ng/mL and 3784 ng/mL | Cl [6, 11]: 46.5 mL/min/kg and 36.5 mL/min/kg and 36.9 mL/min/kg | MRT [6, 11]: 0.55 h and 0.64 h and 0.68 h | T1/2 [6, 11]: 3.27 h and 1.68 h and 2.36 h | Vss [6, 11]: 3.36 L/kg and 1.86 L/kg and 2.51 L/kg | Vz [6, 11]: 13.16 L/kg and 5.31 L/kg and 7.54 L/kg | AUC0-t, Mean [6, 12]: 805 ng·h/mL | AUC0-∞, Mean [6, 12]: 844 ng·h/mL | C0, Mean [6, 12]: 5365 ng/mL | Cl, Mean [6, 12]: 40.0 mL/min/kg | MRT, Mean [6, 12]: 0.62 h | T1/2, Mean [6, 12]: 2.44 h | Vss, Mean [6, 12]: 2.58 L/kg | Vz, Mean [6, 12]: 8.67 L/kg | Tmax ([6]; Oral administration 12 mg/kg, individual animals): 0.25 h | AUC0-t [6, 13]: 1052 ng·h/mL and 694 ng·h/mL and 864 ng·h/mL | AUC0-∞ [6, 13]: 1070 ng·h/mL and 711 ng·h/mL and 876 ng·h/mL | Cl -F [6, 13]: 187 mL/min/kg and 281 mL/min/kg and 228 mL/min/kg | Cmax [6, 13]: 562 ng/mL and 751 ng/mL and 920 ng/mL | MRT [6, 13]: 1.47 h and 1.04 h and 1.11 h | T1/2 [6, 13]: 1.00 h and 1.44 h and 0.98 h | Vz -F [6, 13]: 16.2 L/kg and 35.1 L/kg and 19.5 L/kg | Tmax, Mean ([6]; Oral administration 12 mg/kg, mean of 3): 0.25 h | AUC0-t, Mean [6, 14]: 870 ng·h/mL | AUC0-∞, Mean [6, 14]: 886 ng·h/mL | Cl -F, Mean [6, 14]: 232 mL/min/kg | Cmax, Mean [6, 14]: 744 ng/mL | MRT, Mean [6, 14]: 1.21 h | T1/2, Mean [6, 14]: 1.14 h | Vz -F, Mean [6, 14]: 23.6 L/kg | solubility in pH 6.5 FaSSIF-v1 ([3]; Example 3, text summary, 37°C): approximately 7 µg/mL | solubility in water ([3]; Example 3, text summary, 37°C): 1 to 5 µg/mL | solubility in pH 1.6 FaSSGF ([3]; Example 4, 37°C, LOQ: 0.5µg/mL): LOQ | Solubility 2h [3, 15]: <LOQ | Solubility 24h [3, 15]: LOQ | Solubility 2h [3, 16]: <LOQ | Solubility 24h [3, 16]: LOQ | Solubility 2h ([3]; FeSSIF-v1, pH 5.0, 37°C): 16.2µg/ mL µg/mL and 23.3µg/mL | Solubility 24h ([3]; FeSSIF-v1, pH 5.0, 37°C): 17.9 µg/mL and 20.9 µg/mL | Solubility 2h ([3]; Water, 37°C): 1.4µg/m L µg/mL | Solubility 24h ([3]; Water, 37°C): 1.4 µg/mL (≈ 2.71 µM) | Solubility 2h [3, 17]: 7.8 µg/mL (≈ 15.1 µM) | Solubility 24h [3, 17]: 8.9 µg/mL (≈ 17.2 µM) | Solubility 2h ([3]; pH 4.5 Acetate buffer (50mM), 37°C, LOQ: 0.5 µg/mL): 2.8µg/m L µg/mL | CL (color) [4, 10]: A | Solid (HPLC) Purity [4, 10]: 98.7% | Solid (XRPD) [4, 10]: T-5224 Form A | CL (color) ([4]; 60°C, closed container): A | Solid (HPLC) Purity ([4]; 60°C, closed container): 98.7% | Solid (XRPD) ([4]; 60°C, closed container): T-5224 Form A | diastolic function (E/E') [7]: had not yet shown significant changes

O=C(O)CCc1cc(C(=O)c2ccc(OC3CCCC3)cc2O)ccc1OCc1ccc2c(O)noc2c1 [tert-Butylamine salt Form B]
moisture absorption and color change of the solid [1, 8]: No significant moisture absorption of the solid; no significant color change. | moisture absorption and color change of the solid [1, 9]: No significant moisture absorption of the solid; no significant color change.

Values after ≈ are worked out from the molar mass of the structure shown. Values joined by “and” are separate entries in the source; they are usually repeats but may differ in a detail not shown here. Equal values may be shown once. Where a name gives a salt, the structure may show the parent alone.
